Results reported in US20260382731A1, “BCL-2/BCL-XL PROTEIN DEGRADER AND USE THEREOF” (published 2026).

Sequences of proteins named here, by UniProt entry; tags and fusion partners are left off.
UniProt Q07817, whole entry: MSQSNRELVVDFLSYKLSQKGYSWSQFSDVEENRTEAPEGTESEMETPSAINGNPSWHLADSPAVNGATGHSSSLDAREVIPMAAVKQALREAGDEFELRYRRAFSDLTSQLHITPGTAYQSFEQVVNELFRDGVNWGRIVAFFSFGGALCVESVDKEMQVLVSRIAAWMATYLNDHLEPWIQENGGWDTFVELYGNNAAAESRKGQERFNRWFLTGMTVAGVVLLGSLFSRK

Assays:
BCL-XL = BCL-XL (Homo sapiens, UniProt Q07817); assay: Immunoblotting: BCL-XL protein degradation; settings: read-out: MDA-MB-231 degradation DC50, MDA-MB-231 cells
Text: Cells were collected and lysed in a lysis buffer (Cat. No. BP-115DG, Boston Bio Products, Ashland, MA, USA) containing protease and phosphatase inhibitor cocktails (Cat. No. PPC1010, Sigma-Aldrich, St. Louis, MO, USA). An equal amount of protein lysates was separated on precasted 4-20% Tris-glycine gels (Mini-PROTEAN TGX, Cat. No. 456-1094, Bio-Rad, Hercules, CA, USA). Thereafter, the proteins were transferred to PVDF membranes (Cat. No. LC2002, MilliporeSigma, Billerica, MA, USA). The membranes were blocked with 5% w/v nonfat dry milk in TBS+Tween-20 (0.1% v/v) and then probed with primary antibodies overnight at 4 °C. Next day, the membranes were washed and incubated with appropriate horseradish peroxidase (HRP)-conjugated secondary antibodies. Primary antibodies against BCL-XL (Cat. No. 2762) and Pactin (Cat. No. 4970) and the secondary HRP-linked antibody (Cat. No. 7074) were purchased from Cell Signaling Technology (Danvers, MA, USA). The signal was detected using the ECL substrate (Cat. No. WBKLS0500, MilliporeSigma, Billerica, MA, USA) and captured on the ChemiDoc MP Imaging System (Bio-Rad, Hercules, CA, USA). The band intensities were calculated on the ImageJ software and normalized to equal loading control β-actin.

MOLT-4 cells = assay: Cell viability assay, MOLT-4 (CellTiter-Glo, 72 h); settings: read-out: MOLT4 Cell viability IC50
human platelets = assay: Platelet viability test (CellTiter-Glo, 72 h); settings: read-out: Human platelet IC50
Procedure: Human platelet-rich Plasma (PRP) was purchased from Milestone® Biotechnology Limited. PRPS are used for experiments immediately after arrival. Transfer PRP to a 50-mL polypropylene EP tube containing 5 mL citrate buffer (cat. no. sc-214744, Santa Cruz Biotechnology). To avoid clotting, The final concentration of prostaglandin E1 (PGE1, cat. no. sc-201223A, Santa Cruz Biotechnology) and adenosine diphosphonase triphosphate (cat. no. A6410-200UN, 2 units/mL, respectively) were added to the EP tube. Sigma-Aldrich). Slightly shake and mix the liquid in the EP tube, centrifuge it at 1200 g for 10 minutes, and separate the platelets. HEPES buffer benchtop solution (10 mM HEPES, 135 mM NaCl, 2.8 mM KCl, 1 mM MgCl2, 2 mM CaCl2), 10 mm Hepes, 135 mm NaCl, 2.8 mm KCL, 1 mm MgCl2, 2 mm CaCl2)) was prepared with 2 mL of prostaglandin E1 and 2 units/mL of adenosine bisphosphonase triphosphate. 12 mM NaHCO3, 0.4 mM NaH2PO4, 0.25% BSA and 5.5 mM glucose, pH 7.4; cat. no. Cat. No. Cat. #:25-02580, Tiandz) continuously and gently clean the platelet precipitates after centrifugation. After washing, platelets were slowly reinserted to HEPES buffer table solution containing 1 μM of prostaglandin E1 and 2 units/mL of adenosine bisphosphonase triphosphate. Platelets were counted by Vi-cell XR (Backman) cell counter. Platelet activity tests were performed: platelets were resuscitated into a HEPES buffer solution containing 1 µM of prostaglandin E1 and 2 units/mL of adenosine bisphosphonase triphosphate and 10% FBS, counted, and inoculated into 96-well plates with 5×10^5 platelets per well. Different concentrations of the compound to be detected (starting at 10 μM, diluted 3 times) were added to 96-well plates and incubated in the cell incubator for 72 h. 72 h after administration, platelet activity was detected by CellTiter-Glo™ luminescence assay.

Row | Structure (SMILES) | DC50 (BCL-XL) | IC50 (MOLT-4 cells) | IC50 (human platelets)
1 | Cc1ncsc1-c1ccc([C@H](C)NC(=O)[C@@H]2C[C@@H](O)CN2C(=O)[C@@H](NC(=O)CCCCCC(=O)N2CCN(CC[C@H](CSc3ccccc3)Nc3ccc(S(=O)(=O)Nc4ccc(N5CCN(c6cc(F)cc(-c7c(C(=O)N8CC[C@H](O)C8)c(C)n(C)c7-c7ccccc7)c6)CC5)cc4)cc3S(=O)(=O)C(F)(F)F)CC2)C(C)(C)C)cc1 | 15 nM | 110 nM | > 10000 nM
2 | CCn1c(C)c(S(C)(=O)=O)c(-c2cc(F)cc(N3CCN(c4ccc(NS(=O)(=O)c5ccc(N[C@H](CCN6CCN(C(=O)C7CCN(CCC(=O)N[C@H](C(=O)N8C[C@H](O)C[C@H]8C(=O)N[C@@H](C)c8ccc(-c9scnc9C)cc8)C(C)(C)C)CC7)CC6)CSc6ccccc6)c(S(=O)(=O)C(F)(F)F)c5)cc4)CC3)c2)c1-c1ccc(F)cc1 | 114 nM | 9 nM | –
3 | CCCn1c(C)c(C(=O)NCCN2CCN(C)CC2)c(-c2cc(F)cc(N3CCN(c4ccc(NS(=O)(=O)c5ccc(N[C@H](CCN6CCN(C(=O)CCCCCC(=O)N[C@H](C(=O)N7C[C@H](O)C[C@H]7C(=O)N[C@@H](C)c7ccc(-c8scnc8C)cc7)C(C)(C)C)CC6)CSc6ccccc6)c(S(=O)(=O)C(F)(F)F)c5)cc4)CC3)c2)c1-c1ccc(F)cc1 | 54 nM | 50 nM | –
4 | CCn1c(C)c(C(=O)N2CC[C@H](OC)C2)c(-c2cc(F)cc(N3CCN(c4ccc(NS(=O)(=O)c5ccc(N[C@H](CCN6CCN(C(=O)CCCCCC(=O)N[C@H](C(=O)N7C[C@H](O)C[C@H]7C(=O)N[C@@H](C)c7ccc(-c8scnc8C)cc7)C(C)(C)C)CC6)CSc6ccccc6)c(S(=O)(=O)C(F)(F)F)c5)cc4)CC3)c2)c1-c1ccc(F)cc1 | 51 nM | 34 nM | –
5 | CCn1c(C)c(S(C)(=O)=O)c(-c2cc(F)cc(N3CCN(c4ccc(NS(=O)(=O)c5ccc(N[C@H](CCN6CCN(C(=O)COCCOCC(=O)N[C@H](C(=O)N7C[C@H](O)C[C@H]7C(=O)N[C@@H](C)c7ccc(-c8scnc8C)cc7)C(C)(C)C)CC6)CSc6ccccc6)c(S(=O)(=O)C(F)(F)F)c5)cc4)CC3)c2)c1-c1ccc(F)cc1 | 65 nM | 54 nM | –
6 | CCn1c(C)c(S(C)(=O)=O)c(-c2cc(F)cc(N3CCN(c4ccc(NS(=O)(=O)c5ccc(N[C@H](CCN6CCN(C(=O)OCCCCC(=O)N[C@H](C(=O)N7C[C@H](O)C[C@H]7C(=O)N[C@@H](C)c7ccc(-c8scnc8C)cc7)C(C)(C)C)CC6)CSc6ccccc6)c(S(=O)(=O)C(F)(F)F)c5)cc4)CC3)c2)c1-c1ccc(F)cc1 | 190 nM | 51 nM | –
7 | Cc1ncsc1-c1ccc([C@H](C)NC(=O)[C@@H]2C[C@@H](O)CN2C(=O)[C@@H](NC(=O)CCCCCC(=O)N2CCN(CC[C@H](CSc3ccccc3)Nc3ccc(S(=O)(=O)Nc4ccc(N5CCN(c6cc(F)cc(-c7c(C(=O)N8CC[C@H](O)C8)c(C)n(C(C)C)c7-c7ccc(Cl)cc7)c6)CC5)cc4)cc3S(=O)(=O)C(F)(F)F)CC2)C(C)(C)C)cc1 | 84 nM | 9 nM | –
8 | CCn1c(C)c(C(=O)N2CC(O)C(F)(F)C2)c(-c2cc(F)cc(N3CCN(c4ccc(NS(=O)(=O)c5ccc(N[C@H](CCN6CCN(C(=O)CCCCCC(=O)N[C@H](C(=O)N7C[C@H](O)C[C@H]7C(=O)N[C@@H](C)c7ccc(-c8scnc8C)cc7)C(C)(C)C)CC6)CSc6ccccc6)c(S(=O)(=O)C(F)(F)F)c5)cc4)CC3)c2)c1-c1ccc(F)cc1 (stereo partly drawn) | 84 nM | 40 nM | –
9 | CCn1c(C)c(C(=O)N2CCC(C)(C#N)C2)c(-c2cc(F)cc(N3CCN(c4ccc(NS(=O)(=O)c5ccc(N[C@H](CCN6CCN(C(=O)CCCCCC(=O)N[C@H](C(=O)N7C[C@H](O)C[C@H]7C(=O)N[C@@H](C)c7ccc(-c8scnc8C)cc7)C(C)(C)C)CC6)CSc6ccccc6)c(S(=O)(=O)C(F)(F)F)c5)cc4)CC3)c2)c1-c1ccc(F)cc1 (stereo partly drawn) | 31 nM | 35 nM | –
10 | Cc1ncsc1-c1ccc([C@H](C)NC(=O)[C@@H]2C[C@@H](O)CN2C(=O)[C@@H](NC(=O)CCCCCC(=O)N2CCN(CC[C@H](CSc3ccccc3)Nc3ccc(S(=O)(=O)Nc4ccc(N5CCN(c6cc(F)cc(-c7c(S(C)(=O)=O)c(C)n(C8CC8)c7-c7ccc(F)cc7)c6)CC5)cc4)cc3S(=O)(=O)C(F)(F)F)CC2)C(C)(C)C)cc1 | 92 nM | 150 nM | –
11 | CCn1c(C)c(C(=O)N2CC[C@H](C#N)C2)c(-c2cc(F)cc(N3CCN(c4ccc(NS(=O)(=O)c5ccc(N[C@H](CCN6CCN(C(=O)CCCCCC(=O)N[C@H](C(=O)N7C[C@H](O)C[C@H]7C(=O)N[C@@H](C)c7ccc(-c8scnc8C)cc7)C(C)(C)C)CC6)CSc6ccccc6)c(S(=O)(=O)C(F)(F)F)c5)cc4)CC3)c2)c1-c1ccc(F)cc1 | 52 nM | 32 nM | –

Stronger by DC50 (BCL-XL), values ahead:

Row | DC50 (BCL-XL) | IC50 (MOLT-4 cells) | Structure (SMILES) | IC50 (human platelets)
12 | 3 nM | 24 nM | CCn1c(C)c(C(=O)N2CCOCC2)c(-c2cc(F)cc(N3CCN(c4ccc(NS(=O)(=O)c5ccc(N[C@H](CCN6CCN(C(=O)CCCCCC(=O)N[C@H](C(=O)N7C[C@H](O)C[C@H]7C(=O)N[C@@H](C)c7ccc(-c8scnc8C)cc7)C(C)(C)C)CC6)CSc6ccccc6)c(S(=O)(=O)C(F)(F)F)c5)cc4)CC3)c2)c1-c1ccc(F)cc1 | –
13 | 5 nM | 104 nM | Cc1ncsc1-c1ccc([C@H](C)NC(=O)[C@@H]2C[C@@H](O)CN2C(=O)[C@@H](NC(=O)CCCCCC(=O)N2CCN(CC[C@H](CSc3ccccc3)Nc3ccc(S(=O)(=O)Nc4ccc(N5CCN(c6cc(F)cc(-c7c(S(C)(=O)=O)c(C)n(C)c7-c7ccc(F)cc7)c6)CC5)cc4)cc3S(=O)(=O)C(F)(F)F)CC2)C(C)(C)C)cc1 | –
14 | 5 nM | 110 nM | CCn1c(C)c(S(C)(=O)=O)c(-c2cc(F)cc(N3CCN(c4ccc(NS(=O)(=O)c5ccc(N[C@H](CCN6CCN(C(=O)COCCCC(=O)N[C@H](C(=O)N7C[C@H](O)C[C@H]7C(=O)N[C@@H](C)c7ccc(-c8scnc8C)cc7)C(C)(C)C)CC6)CSc6ccccc6)c(S(=O)(=O)C(F)(F)F)c5)cc4)CC3)c2)c1-c1ccc(F)cc1 | –
15 | 1 nM | 13 nM | CCn1c(C)c(S(C)(=O)=O)c(-c2cc(F)cc(N3CCN(c4ccc(NS(=O)(=O)c5ccc(N[C@H](CCN6CCN(C(=O)CCCCCC(=O)N[C@H](C(=O)N7C[C@H](O)C[C@H]7C(=O)N[C@@H](C)c7ccc(-c8scnc8C)cc7)C(C)(C)C)CC6)CSc6ccccc6)c(S(=O)(=O)C(F)(F)F)c5)cc4)CC3)c2)c1-c1ccc(F)cc1 (single isomer, unassigned) | –
16 | 4 nM | 9 nM | CCn1c(C)c(C(=O)NC2CCOCC2)c(-c2cc(F)cc(N3CCN(c4ccc(NS(=O)(=O)c5ccc(N[C@H](CCN6CCN(CCCCCCC(=O)N[C@H](C(=O)N7C[C@H](O)C[C@H]7C(=O)N[C@@H](C)c7ccc(-c8scnc8C)cc7)C(C)(C)C)CC6)CSc6ccccc6)c(S(=O)(=O)C(F)(F)F)c5)cc4)CC3)c2)c1-c1ccc(F)cc1 | –
17 | 2 nM | 120 nM | CCn1c(C)c(S(C)(=N)=O)c(-c2cc(F)cc(N3CCN(c4ccc(NS(=O)(=O)c5ccc(N[C@H](CCN6CCN(C(=O)CCCCCC(=O)N[C@H](C(=O)N7C[C@H](O)C[C@H]7C(=O)N[C@@H](C)c7ccc(-c8scnc8C)cc7)C(C)(C)C)CC6)CSc6ccccc6)c(S(=O)(=O)C(F)(F)F)c5)cc4)CC3)c2)c1-c1ccc(F)cc1 (stereo partly drawn) | –
18 | 3 nM | 51 nM | CCn1c(C)c(S(C)(=O)=O)c(-c2cc(F)cc(N3CCN(c4ccc(NS(=O)(=O)c5ccc(N[C@H](CCN6CCN(CCCCC(=O)N[C@H](C(=O)N7C[C@H](O)C[C@H]7C(=O)N[C@@H](C)c7ccc(-c8scnc8C)cc7)C(C)(C)C)CC6)CSc6ccccc6)c(S(=O)(=O)C(F)(F)F)c5)cc4)CC3)c2)c1-c1ccc(F)cc1 | –
19 | 3 nM | 28 nM | CCn1c(C)c(S(C)(=O)=O)c(-c2cc(F)cc(N3CCN(c4ccc(NS(=O)(=O)c5ccc(N[C@H](CCN6CCN(CCCCCOCC(=O)N[C@H](C(=O)N7C[C@H](O)C[C@@H]7C(=O)N[C@@H](C)c7ccc(-c8scnc8C)cc7)C(C)(C)C)CC6)CSc6ccccc6)c(S(=O)(=O)C(F)(F)F)c5)cc4)CC3)c2)c1-c1ccc(F)cc1 | –
